# Laboratory results: patent US10213415B2, “Compounds as opioid receptor modulators” (JANSSEN PHARMACEUTICA NV, priority 2004, dated 2019)
# The chains behind the UniProt entries cited, without tags or fusion partners.
# UniProt P35372, whole entry: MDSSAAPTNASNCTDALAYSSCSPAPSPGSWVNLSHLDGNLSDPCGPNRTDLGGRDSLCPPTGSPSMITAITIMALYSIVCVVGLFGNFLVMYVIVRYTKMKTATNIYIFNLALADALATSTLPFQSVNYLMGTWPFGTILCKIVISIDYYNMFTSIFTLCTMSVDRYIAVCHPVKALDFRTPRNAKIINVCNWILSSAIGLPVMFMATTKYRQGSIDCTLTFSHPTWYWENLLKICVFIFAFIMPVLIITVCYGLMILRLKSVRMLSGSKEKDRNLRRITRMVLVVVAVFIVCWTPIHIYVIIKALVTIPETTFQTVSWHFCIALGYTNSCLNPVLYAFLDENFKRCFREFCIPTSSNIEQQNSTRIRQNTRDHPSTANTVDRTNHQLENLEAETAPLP
# UniProt P41143, whole entry: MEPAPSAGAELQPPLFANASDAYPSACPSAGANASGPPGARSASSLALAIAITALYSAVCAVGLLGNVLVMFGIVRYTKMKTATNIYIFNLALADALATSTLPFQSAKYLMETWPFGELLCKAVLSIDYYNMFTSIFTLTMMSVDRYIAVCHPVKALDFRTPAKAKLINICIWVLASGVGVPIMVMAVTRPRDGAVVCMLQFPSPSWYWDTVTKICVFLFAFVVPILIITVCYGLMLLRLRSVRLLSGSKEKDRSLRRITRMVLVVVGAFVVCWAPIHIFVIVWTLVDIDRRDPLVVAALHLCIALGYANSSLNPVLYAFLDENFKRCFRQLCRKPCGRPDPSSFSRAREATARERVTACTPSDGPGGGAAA
# Assays:
# [1] = target: human mu opioid receptor (Homo sapiens, UniProt P35372); experiment: Human Mu Opioid Receptor Binding Assay (CHO membranes, 3H-Damgo); conditions: read-out: hKi μ
# [2] = target: human delta subtype 2 opioid receptor (Homo sapiens, UniProt P41143); experiment: Human Delta Opioid Receptor Binding Assay (CHO membranes, 3H-Naltrindole); conditions: read-out: hKi δ
# Experimental: This assay is designed to test the ability of a compound to interfere with the binding of tritiated Naltrindole to the human delta subtype 2 opioid receptor. Membranes from Chinese Hamster Ovary cells expressing the human delta subtype 2 opioid receptor (Perkin Elmer #RBHODM400UA) are homogenized in assay buffer (50 mM Tris, pH 7.5 with 5 mM MgCl2) using a glass tissue grinder, Teflon pestle and a Steadfast Stirrer (Fisher Scientific). The concentration of membranes is adjusted to 100 μg/mL in assay buffer and 100 μL is dispensed into each well of the assay plate, a 96 well round bottom polypropylene plate. Compounds to be tested are solubilized in DMSO (Pierce), 10 mM, then diluted in assay buffer to 6× the desired final concentration. The ligand, ^3H-Naltrindole (Perkin Elmer #NET-1065) is also diluted in assay buffer to 6 nM. In a second 96 well round bottom polypropylene plate, known as the premix plate, 60 μL of the 6× compound is combined with 60 μL of 6 nM ^3H-Naltrindole. From this premix plate 50 μL is transferred to the assay plate containing the membranes, in duplicate. The assay plate is incubated for 30 min at room temperature. A GF/C 96 well filter plate (Perkin Elmer #6005174) is pretreated with 0.3% polyethylenimine for 30 min. […] Nonspecific binding is determined in the presence of 1 μM unlabelled Naltrindole (Sigma #N115).
# [3] = tested on: novel environment-stressed mice; experiment: In Vivo Assay-Stress-Induced Fecal Output (Fecal Output for 1 hr); conditions: 30 mg/kg oral, 1 hr
# Excerpt: This assay evaluates the fecal output in novel environment-stressed mice to that of acclimated controls.
# Methods: Adult, male, Crl:CD-1(ICR) mice, weighing ˜30-35 g were used in these studies, with a minimum of 10 mice per dose group. One group of mice was assigned as acclimated, or “non-stressed” controls. These control mice were transported from colony housing, where they were housed 3/cage in polycarbonate cages with access to food and water ad lib. to the procedure room. The mice were removed from their home cages and individually housed in 20 cm wide×20 cm deep×15 cm tall cages, equipped with a wire mesh bottom where they remained for a 16-18 hr period of acclimation to their novel environment. Mice were allowed access to food and water ad lib. during acclimation. The other groups of mice were assigned as non-acclimated, or “stressed” treatment groups. Each mouse in each group was weighed and vehicle, or test compound, was intragastrically administered by oral intubation in 0.5% methylcellulose. Mice were allowed access to water only ad lib. during the test period. After compound administrations, acclimated (control) as well as non-acclimated (stressed) mice were individually housed in a 20 cm wide×20 cm deep×15 cm tall cage, with a wire mesh bottom. An absorbant cardboard is placed beneath the cages. The number of fecal pellets excreted by each mouse was determined at hourly intervals following placement of the mice in the individual cages. Raw Data=# of fecal pellets/mouse/hr. […]
compound,measurement,setting,value
Cc1cc(O)cc(C)c1C[C@H](N)C(=O)N(Cc1cccc(C(N)=O)c1)[C@@H](C)c1nc(-c2ccccc2)c[nH]1,Ki,[1],0.7 nM
same,Ki,[2],6.6 nM
same,Fecal Output (# pellets) cpd,[3]; novel environment-stressed mice,10.3 pellets
same,Fecal Output cpd % control,[3]; relative to acclimated control,332.3%
same,Fecal Output cpd % NES,[3]; relative to novel environment stress (NES) vehicle group,79.8%
